Experiments:
Carbonic anhydrase 13 = Carbonic anhydrase 13 (Mus musculus, UniProt Q9D6N1); experiment: Inhibition of esterase activity of mouse carbonic anhydrase 13 by CO2 hydration method
Carbonic anhydrase 2 = Carbonic anhydrase 2 (Homo sapiens, UniProt P00918); experiment: Inhibition of esterase activity of human carbonic anhydrase 2 by CO2 hydration method
Carbonic anhydrase 1 = Carbonic anhydrase 1 (Homo sapiens, UniProt P00915); experiment: Inhibition of esterase activity of human carbonic anhydrase 1 by CO2 hydration method

Amino acid sequences for entries named in this document (tags omitted). A change or cut given only in a name is not applied to a line headed by its entry. Residues count along the entry.
UniProt Q9D6N1: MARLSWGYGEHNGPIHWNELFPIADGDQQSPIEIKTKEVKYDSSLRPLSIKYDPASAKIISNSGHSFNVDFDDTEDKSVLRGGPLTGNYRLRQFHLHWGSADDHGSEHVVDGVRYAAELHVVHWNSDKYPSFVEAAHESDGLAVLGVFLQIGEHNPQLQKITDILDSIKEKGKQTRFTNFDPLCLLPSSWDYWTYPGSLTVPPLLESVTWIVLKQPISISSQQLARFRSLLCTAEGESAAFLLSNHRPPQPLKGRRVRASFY
UniProt P00915, 2-261 limits assumed: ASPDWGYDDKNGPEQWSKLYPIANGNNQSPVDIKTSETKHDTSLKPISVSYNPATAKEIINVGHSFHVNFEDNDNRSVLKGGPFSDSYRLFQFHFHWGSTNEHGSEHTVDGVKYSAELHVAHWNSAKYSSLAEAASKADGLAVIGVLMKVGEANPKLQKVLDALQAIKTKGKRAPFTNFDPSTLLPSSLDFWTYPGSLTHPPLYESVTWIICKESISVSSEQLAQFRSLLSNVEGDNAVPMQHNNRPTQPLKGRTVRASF

Compound | IC50 (Carbonic anhydrase 13) | IC50 (Carbonic anhydrase 2) | IC50 (Carbonic anhydrase 1)
CCOP(=O)(OCC)Oc1ccc([N+](=O)[O-])cc1 | 1020 nM | 59 nM | 338 nM
O=[N+]([O-])c1ccc(OP(=O)(O)O)cc1 | 1050 nM | 63 nM | 330 nM

From ChEMBL document CHEMBL1268884, “Paraoxon, 4-nitrophenyl phosphate and acetate are substrates of α- but not of β-, γ- and ζ-carbonic anhydrases” (2010)
